## scFv variants of Ab-14 (heavy chain) against a SARS-CoV-2 spike peptide

Binding partner: SARS-CoV-2 spike HR2 peptide, sequence PDVDLGDISGINAS.

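Phage display of a naive human antibody library on the peptide gave the parent. Designed CDR sequences, proposed from the first random library and measured here. Group labels follow the data file (Ctrl: baseline library sampled from a position-specific scoring matrix, with some repeated check sequences; Rand: our label for a block that the file lists under HC and that is probably the random mutants of the ten best first-round binders; En: ensemble of fine-tuned language models; GP: Gaussian process model; GPLM: also part of the Gaussian process libraries; HC: hill climbing; Gen: genetic algorithm; Gibbs: Gibbs sampling; a sequence that several methods proposed may carry one label only). Affinity was read by AlphaSeq, a pooled yeast mating assay with surface-displayed partners. Pairs that bind mate more often; barcode pairs of the diploids are counted by sequencing. Scores were corrected for input abundance and mapped to Kd with protein pairs of known affinity run in the same pool. Each pool was mated in six replicate cultures.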

Parent scFv Ab-14: VH joined to VL by a 15-residue (Gly4Ser)3 linker. Changes lie in the heavy chain CDRs alone.
VH: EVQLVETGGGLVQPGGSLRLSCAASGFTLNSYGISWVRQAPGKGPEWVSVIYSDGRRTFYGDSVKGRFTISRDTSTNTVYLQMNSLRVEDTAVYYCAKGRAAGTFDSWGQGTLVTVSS
VL: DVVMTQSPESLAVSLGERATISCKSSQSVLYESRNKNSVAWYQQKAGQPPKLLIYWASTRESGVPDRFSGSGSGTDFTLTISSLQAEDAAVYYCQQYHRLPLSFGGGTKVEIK

Each variant is given by its three heavy chain CDRs, as the data file delimits them; those of the parent are GFTLNSYGIS, VIYSDGRRTFYGDSVK, GRAAGTFDS. The Kd shown is the geometric mean over detected replicates; a lower Kd is a better binder. "no signal" marks a missing value. The strain was present, yet no cells mated with the target were sequenced in any replicate, which points to weak or no binding.

| apparent Kd | seen in | empty controls | CDR-H1 | CDR-H2 | CDR-H3 | group |
|---|---|---|---|---|---|---|
| 590 pM | 1 of 6 | 0 of 18 | GFDLESYGIS | VIYADGSRTAYADSVK | GNVAGTFNL | En_HC |
| no signal | 0 of 6 | 0 of 18 | GKSLEEYGIS | VIYADGKRNMYANDVK | GHVGYIFMM | En_Gibbs |
| 1.1 nM | 6 of 6 | 0 of 18 | GFDLNSYGIS | VIYSDGRRTFYGDGVK | GRTAGTFDS | GPLM_Gen |
| 790 pM | 6 of 6 | 0 of 18 | GFTLNSYGIS | VIYSDGLRTFYSDSVK | GRTAGTFDS | GPLM_Gibbs |
| 14 nM | 6 of 6 | 1 of 18 | GFTLNSYGIS | VIYSDGKRTFYTDSVK | GRAAGTFDS | Ctrl |
| 2.9 nM | 6 of 6 | 0 of 18 | GFSLNSYGIS | VIYSDGRRTAYGDQVK | GRAAGTFDS | GP_Gen |
| no signal | 0 of 6 | 0 of 18 | GFTLLSYGIS | VIYSDGKRTWYLDSVK | GQAAGTFIS | Ctrl |
| 4.0 nM | 4 of 6 | 0 of 18 | GFSLNSYGIS | VIYSDGRRTFYGDQVK | GQTAGTFDS | GPLM_Gen |
| 540 pM | 6 of 6 | 0 of 18 | GFDLDEYGIS | VIYADGRRTFYQDSVK | GGNAGTFDQ | En_HC |
| 330 pM | 3 of 6 | 0 of 18 | GFDLNEYGIS | VIYADGMRTAYTDSVK | GNEAGTFDK | En_HC |
| 420 pM | 6 of 6 | 0 of 18 | GFDLNEYGIS | VIYADGVRTFYDDSVK | GQLAGTFDL | En_HC |
| 220 pM | 6 of 6 | 1 of 18 | GFDLNEYGIS | VIYADGRRTFYADSVK | GEEAGTFNM | En_HC |
| 210 pM | 6 of 6 | 0 of 18 | GFDLEDYGIS | VIYADGRRTFYADSVK | GNVAGTFDE | En_HC |
| 600 pM | 6 of 6 | 1 of 18 | GFDLNEYGIS | VIYADGMRTAYTDSVK | GETAGTFDL | En_Gen |
| no signal | 0 of 6 | 1 of 18 | GFDLNSYGIS | VIYSDGRRTFYGDSVK | GRAAGLFNS | GPLM_HC |
| 760 pM | 6 of 6 | 0 of 18 | GFDLNEYGIS | VIYADGQRTAYTDSVK | GENAGTFDM | En_Gen |
| 18 nM | 6 of 6 | 2 of 18 | GFTLESYGIS | VIYSDGKRTFYSDSVK | GKAAGTFDS | GP_Gen |
| 1.7 nM | 6 of 6 | 0 of 18 | GFTLESYGIS | VIYSDGRRTFYADSVK | GRTAGTFDS | GPLM_Gen |
| 680 pM | 6 of 6 | 0 of 18 | GFDLDEYGIS | VIYADGQRKAYADSVK | GNVAGTFDL | En_Gen |
| 55 nM | 2 of 6 | 0 of 18 | GFNLNSYGIS | VIYSDGRRTFYIDRVK | GQAAGTFDS | GP_Gen |
| 330 pM | 6 of 6 | 0 of 18 | GFDLNEYGIS | VIYADGMRTAYVDSVK | GNVAGTFDQ | En_Gen |
| no signal | 0 of 6 | 0 of 18 | GFNLDEYGIS | VIYADGVRTKYIDNVK | GVLQDLQMG | En_Gibbs |
| 610 pM | 6 of 6 | 0 of 18 | GFDLNEYGIS | VIYADGMRTAYADDVK | GNTAGTFDT | En_Gen |
| 6.0 nM | 6 of 6 | 0 of 18 | GFELNSYGIS | VIYSDGRRTFYADEVK | GRTAGTFDS | GPLM_Gen |
| no signal | 0 of 6 | 0 of 18 | GFTLNSYGIS | VIYSDGRRTFYSDSVK | GAAVGTFDS | GP_HC |
| 49 nM | 6 of 6 | 0 of 18 | EFSLNSYGIS | VIYSDGRRTFYKDSVK | GRTAGTFDS | GP_Gibbs |
| 300 pM | 6 of 6 | 0 of 18 | GFDLNEYGIS | VIYADGRRTFYSDSVK | GEIAGTFDI | En_HC |
| no signal | 0 of 6 | 1 of 18 | GFSLNCYGIS | VIYSDGRRTFYADSVK | GRTAGTFDS | GPLM_Gen |
| 7.2 nM | 1 of 6 | 0 of 18 | GFTLNSYGIQ | VIYSDGRRVAYSDSVK | GKAAGTFDS | Ctrl |
| no signal | 0 of 6 | 1 of 18 | GFDLDEYGIS | VIYADGRRTFYTDSVK | GQAAGTFDQ | En_HC |
| no signal | 0 of 6 | 0 of 18 | GFSLNSYGIS | VIYSDGRRTFYGDSVK | GRAAGHFDS | GPLM_HC |
| no signal | 0 of 6 | 0 of 18 | GFTLNEYGIS | VIYSDGRRTFYGDSVK | GVAAGRFDS | Ctrl |
| 510 pM | 6 of 6 | 0 of 18 | GFTLDSYGIS | VIYADGRRTFYGDSVK | GRAAGTFKS | GPLM_HC |
| 100 nM | 4 of 6 | 0 of 18 | GFTLNEYGIS | VIYSDGRRTFYGDSVK | GRAAGTWDS | GP_HC |
| 970 pM | 6 of 6 | 0 of 18 | GFTLNEYGIS | VIYSDGRRTFYGDSVK | GRVAGTFDT | GPLM_Gen |
| 120 nM | 1 of 6 | 1 of 18 | GFDLNEYGIS | VIYADGVRRTYQDAVK | VDQSGVIDV | En_Gibbs |
| 190 nM | 1 of 6 | 0 of 18 | GFTLNSYGIS | VIYSDGQRTFYGDSVK | GRVAGTFDS | GPLM_Gen |
| 300 pM | 6 of 6 | 0 of 18 | GFNLNEYGIS | VIYADGKRTAYSDSVK | GEVAGTFDV | En_HC |
| 38 nM | 12 of 12 | 1 of 36 | GFTLNSYGIS | VIYSDGRRTFYKDSVK | GKAAGTFDS | Ctrl+GP_Gibbs |
| 2.6 nM | 6 of 6 | 0 of 18 | GFDLEDYGIS | VIYADGKRTAYADSVK | GEVAGTFDL | En_Gen |
| 11 nM | 6 of 6 | 0 of 18 | GFTRNSYGIS | VIYSDGRRTFYGDNVK | GRAAGTFDS | Ctrl |
| no signal | 0 of 6 | 0 of 18 | GETLNSYGIS | VIYSDGRRTFYLDDVK | GRAAGTADS | Ctrl |
| no signal | 0 of 6 | 0 of 18 | GFTLDSPGIS | VIYSDGRRTFYGDSVK | GRAAKTALS | Rand |
| no signal | 0 of 6 | 0 of 18 | GFTLNEYGIS | VIYSDGHRTFYGDSVK | GSAAGTFSC | Ctrl |
| 1.9 nM | 6 of 6 | 0 of 18 | GFDLNSYGIS | VIYSDGIRTFYADSVK | GRAAGTFDS | Ctrl |
| 1.4 nM | 6 of 6 | 0 of 18 | GFSLNSYGIS | VIYSDGRRTFYADSVK | GSEAGTFDS | GPLM_Gen |
| no signal | 0 of 6 | 1 of 18 | GFTLNEYGIS | VIYSDGRRTFYSDSVK | GRAAVTFDQ | GPLM_HC |
| 670 pM | 6 of 6 | 1 of 18 | GFDLNEYGIS | VIYADGMRTAYADNVK | GENAGTFDI | En_Gen |
| 660 pM | 6 of 6 | 0 of 18 | GFTLNSYGIS | VIYADGRRTFYGDSVK | GFAAGTFDS | GPLM_Gen |
| no signal | 0 of 6 | 0 of 18 | GFTLNSYGIS | VIYADGRRTFYDDSVK | GRAAGTNKS | Rand |
| 1.7 nM | 6 of 6 | 0 of 18 | GFELNSYGIS | VIYSDGRRTFYGDSVK | GKTAGTFDA | GPLM_Gibbs |
| 270 pM | 6 of 6 | 0 of 18 | GFDLNEYGIS | VIYADGRRTFYTDSVK | GVNAGTFDS | En_HC |
| 1.6 nM | 6 of 6 | 0 of 18 | GFDLDEYGIS | VIYADGMRTAYADSVK | GSNAGTFDT | En_Gen |
| 3.1 nM | 6 of 6 | 1 of 18 | GFDLNSYGIS | VIYSDGRRTFYGDMVK | GRIAGTFDS | GP_Gen |
| 40 nM | 2 of 6 | 0 of 18 | GFTLNSYGIS | VIYSDGRRTFYHDSVK | GRAAGTFDQ | Ctrl |
| 5.8 nM | 4 of 6 | 0 of 18 | GFTLNDYGIS | VIYSDGRRTFYGDSVK | GRCAGTFDS | GPLM_HC |
| no signal | 0 of 6 | 1 of 18 | GFTDNDYGIS | VIYSDGRRTFYGDSVK | GSAALTQIS | Rand |
| 42 nM | 5 of 6 | 0 of 18 | GFTLNSYGIS | VIYSDGRRTFYSDDVK | GGAAGTFDS | Ctrl |
| 180 pM | 6 of 6 | 0 of 18 | GFDLNEYGIS | VIYADGRRTFYSDSVK | GEIAGTFNV | En_HC |
| no signal | 0 of 6 | 0 of 18 | GFTLNSYGIS | VIYADGRRTFYGDSVK | GRAALTFDS | Ctrl |
| 8.3 pM | 6 of 6 | 0 of 18 | GFDLDEYGIS | VIYADGRRTAYADSVK | GNTAGTFDT | En_Gen |
| no signal | 0 of 6 | 0 of 18 | GFTLNEYGIS | VIYSDGQRTFYGDSVK | GRTAGTFIS | GP_HC |
| 130 pM | 5 of 6 | 0 of 18 | GFDLNEYGIS | VIYADGKRTFYADSVK | GGNAGTFDV | En_Gen |
| 16 nM | 6 of 6 | 0 of 18 | GFQLNSYGIS | VIYSDGRRTFYGDSVK | GWVAGTFDT | GP_Gibbs |
| 38 nM | 1 of 6 | 1 of 18 | GFYLNSYGIS | VIYSDGRRTFYKDSVK | GQLAGTFDS | GPLM_HC |
| no signal | 0 of 6 | 0 of 18 | GFDINEYGIS | VIYADGNRTMYQDQVK | GFNEGSFVI | En_Gibbs |
| no signal | 0 of 6 | 0 of 18 | GFTLNSYGIS | VIYSDGRRTFYSDSVK | GRAGGIFDS | GPLM_HC |
| 1.6 nM | 6 of 6 | 0 of 18 | GFDLNSYGIS | VIYSDGIRTFYGDSVK | GRTAGTFDS | GP_Gen |
| 230 pM | 6 of 6 | 0 of 18 | GFDLNEYGIS | VIYADGKRTFYSDSVK | GEIAGTFDQ | En_HC |
| 440 pM | 6 of 6 | 1 of 18 | GFDLNEYGIS | VIYADGKRTAYADDVK | GNVAGTFDI | En_Gen |
| 4.9 nM | 3 of 6 | 1 of 18 | GFSLNSYGIS | VIYSDGRRTFYKDSVK | GRYAGTFDS | GP_Gibbs |
| 450 pM | 6 of 6 | 0 of 18 | GFDLNEYGIS | VIYADGMRTAYTDSVK | GNTAGTFDV | En_Gen |
| 570 pM | 6 of 6 | 0 of 18 | GFDLNEYGIS | VIYADGVRTAYADSVK | GEAAGTFDV | En_Gen |
| no signal | 0 of 6 | 0 of 18 | GFTRNDYGIS | VIYSDGRRTFYGDSVK | GQAAGTFMS | Ctrl |
| 120 nM | 1 of 6 | 0 of 18 | GFNLNSYGIS | VIYSDGYRTFYGDSVK | AREMFTFDS | Ctrl |
| 1.4 nM | 6 of 6 | 0 of 18 | GFSLNSYGIS | VIYSDGRRTAYGDRVK | GRAAGTFDS | GP_Gen |
| 340 pM | 6 of 6 | 0 of 18 | GFDLNEYGIS | VIYADGMRTAYADSVK | GSVAGTFDI | En_Gen |
| no signal | 0 of 6 | 0 of 18 | GFDVMEYGIS | VIYADGMRQAYTNKVK | GGITSSGLI | En_Gibbs |
| 410 pM | 6 of 6 | 1 of 18 | GFDLNEYGIS | VIYADGMRTAYSDSVK | GEVAGTFDM | En_Gen |
| 40 nM | 6 of 6 | 1 of 18 | GFELNMYGIS | VIYSDGRRTFYGDQVK | GEAAGTFDS | GP_Gibbs |

Some sequences occur more than once in the pool; their replicates are pooled. Background: pairings of all heavy chain designs with three empty control strains gave a value in 1% of cases (median 120 nM, 5th percentile 7.0 nM). Values in that range, when seen in few replicates, are hard to tell from nonspecific mating. For each scFv, signals with the empty controls are counted beside the result. Values of this round are not directly comparable with the first-round values of the same sequences. The authors averaged sequences with at least three values out of six and counted those with two or fewer as poor binders. Of ten entries with the parent sequence, four were seen in most replicates (averages 2.2 nM to 240 nM), three in one and three in none, so single entries are noisy.

Data: MIT Lincoln Laboratory AlphaSeq set, Li et al. 2023, doi:10.1038/s41467-023-39022-2, as distributed in FLAb.